Read-outs that look alike come from different tables or passages of the source.
Experiments:
[1] = biological target: human activated kallikrein enzyme (Homo sapiens, UniProt P03952); experiment: Plasma kallikrein inhibition, fluorogenic PFR-AMC substrate, 500 pM activated kallikrein format
[2] = biological target: plasma kallikrein (Homo sapiens, UniProt P03952); experiment: Neat human plasma assay, FXIIa contact pathway-activated, PFR-AMC substrate; details: read-out: Human Plasma Assay: IC90, citrated human plasma 78% final, 10 nM human FXIIa, 100 μM PFR-AMC
[3] = read-out: Primary Dose Response Assay: Average EC50, 300 uM PFR-AMC, 30 min preincubation, 10 min reaction

By UniProt entry, the sequences of proteins in these tests, tags left out. Residues count along the entry.
UniProt P03952, 391-638 limits assumed: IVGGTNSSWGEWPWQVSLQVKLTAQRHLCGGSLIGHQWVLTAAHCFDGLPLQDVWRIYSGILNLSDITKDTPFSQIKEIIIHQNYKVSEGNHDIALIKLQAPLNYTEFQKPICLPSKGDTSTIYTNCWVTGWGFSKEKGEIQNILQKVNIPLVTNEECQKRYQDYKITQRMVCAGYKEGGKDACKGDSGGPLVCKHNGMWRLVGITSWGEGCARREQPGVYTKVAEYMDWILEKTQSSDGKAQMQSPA
UniProt P03952, 20-390 partner limits assumed: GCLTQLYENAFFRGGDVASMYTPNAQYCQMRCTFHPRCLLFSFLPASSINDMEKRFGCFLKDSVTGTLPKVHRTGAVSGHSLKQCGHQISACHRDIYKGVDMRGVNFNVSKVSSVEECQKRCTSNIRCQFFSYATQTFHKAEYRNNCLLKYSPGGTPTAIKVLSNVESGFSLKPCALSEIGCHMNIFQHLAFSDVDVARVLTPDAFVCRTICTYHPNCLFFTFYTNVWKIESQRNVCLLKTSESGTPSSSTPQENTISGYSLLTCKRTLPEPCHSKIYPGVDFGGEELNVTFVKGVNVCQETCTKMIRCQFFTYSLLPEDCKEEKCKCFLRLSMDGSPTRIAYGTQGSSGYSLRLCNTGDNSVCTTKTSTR

SMILES | EC50 [1, 3] [nM] | IC90 [2] [nM] | IC90 ([2]; tested form: formate) [nM] | EC50 ([1]; read-out: Primary Dose Response Assay: Average EC50, 300 uM PFR-AMC, 30 min preincubation, 10 min reaction, tested form: formate) [nM]
CN1C(=O)CN(c2cc(C3CC3)cn3cc(CNc4cc(NC(=O)C5CC5(F)c5cccc(Cl)c5)ncn4)nc23)C1=O (single isomer, unassigned) [332] | 100 to 1000 | – | – | –
Cc1ccnc(C2CC2C(=O)Nc2cc(NCc3cn4cc(C5CC5)cc(N5CC6CC6C5=O)c4n3)ncn2)n1 (single isomer, unassigned) [320] | 100 to 1000 | – | – | –
O=C(Nc1cc(NCc2cn3cc(C4CC4)cc(N4CC5CC5C4=O)c3n2)ccn1)[C@H]1C[C@@H]1c1cccc(Cl)c1 (single isomer, unassigned) | < 1 | 400 to 1500 | – | –
CN1C(=O)CN(c2cc(C3CC3)cn3cc(CNc4cc(NC(=O)C5C(c6cccc(Cl)c6)C5(F)F)ncn4)nc23)C1=O (single isomer, unassigned) [544] | 100 to 1000 | – | – | –
O=C(Nc1cc(NCc2cn3cc(C4CC4)cc(N4CCOCC4=O)c3n2)ncn1)C1CC1c1cccc(Cl)c1 (single isomer, unassigned) [75] | < 1 | – | – | –
N#Cc1ccc(Cl)cc1C1CC1C(=O)Nc1cc(NCc2cn3cc(C4CC4)cc(N4CCCC4=O)c3n2)ncn1 (single isomer, unassigned) | < 1 | – | – | –
Cc1ccnc([C@@H]2C[C@H]2C(=O)Nc2cc(NC(C)c3cn4cc(C5CC5)cc(N5CC(=O)N(C)C5=O)c4n3)ncn2)n1 (single isomer, unassigned) [450] | 100 to 1000 | – | – | –
Cc1csc(C2CC2C(=O)Nc2cc(NCc3cn4cc(C5CC5)cc(N5CC(=O)N(C)C5=O)c4n3)ncn2)n1 (single isomer, unassigned) [447] | < 1 | < 400 | – | –
Cc1ccnc(C2(F)CC2C(=O)Nc2cc(N[C@H](C)c3cn4cc(C5CC5)cc(N5CC(=O)N(C)C5=O)c4n3)nc(C)n2)n1 (single isomer, unassigned) [548] | 100 to 1000 | – | – | –
Cc1ccnc(C2CC2C(=O)Nc2cc(NCc3cn4cc(C5CC5)cc(N5CC6CC6C5=O)c4n3)ncn2)n1 (single isomer, unassigned) [319] | < 1 | 400 to 1500 | – | –
O=C(Nc1cc(NCc2cn3cc(C4CC4)cc(N4C(=O)C5CCC4C5)c3n2)ccn1)[C@H]1C[C@@H]1c1cccc(Cl)c1 (single isomer, unassigned) [93] | 1 to 10 | – | – | –
Cc1ccnc([C@H]2C[C@@H]2C(=O)Nc2cc(OC(C)c3cn4cc(C5CC5)cc(N5CC(=O)N(C)C5=O)c4n3)cnn2)n1 (some centres unmarked) | < 1 | 400 to 1500 | – | –
Cc1ccnc(C2CC2C(=O)Nc2cc(NCc3cn4cc(C5CC5)cc(N5CC6CC6C5=O)c4n3)ncn2)n1 (single isomer, unassigned) [318] | < 1 | 400 to 1500 | – | –
Cc1ccnc(C2(F)CC2C(=O)Nc2cc(N[C@H](C)c3cn4cc(C5CC5)cc(N5CC(=O)N(C)C5=O)c4n3)nc(C)n2)n1 (single isomer, unassigned) [547] | < 1 | – | – | –
Cc1ccnc([C@H]2C[C@@H]2C(=O)Nc2cc(N[C@H](C)c3cn4cc(C5CC5)cc(N5CC6CC6C5=O)c4n3)ncn2)n1 (single isomer, unassigned) | < 1 | – | – | –
Cc1ccnc([C@@H]2C[C@H]2C(=O)Nc2cc(NC(C)c3cn4cc(C5CC5)cc(N5CC(=O)N(C)C5=O)c4n3)ncn2)n1 (single isomer, unassigned) [453] | > 6000 | – | – | –
CN1C(=O)CN(c2cc(C3CC3)cn3cc(CNc4cc(NC(=O)C5CC5(F)c5cccc(Cl)c5)ncn4)nc23)C1=O (racemic) [330] | 100 to 1000 | – | – | –
O=C(Nc1cc(NCc2cn3cc(C4CC4)cc(N4CC5CC5C4=O)c3n2)ncn1)[C@H]1C[C@@H]1c1cccc(Cl)c1 (single isomer, unassigned) | 1 to 10 | 1500 to 10000 | – | –
Cc1csc(C2CC2C(=O)Nc2cc(NCc3cn4cc(C5CC5)cc(N5CC(=O)N(C)C5=O)c4n3)ncn2)n1 (single isomer, unassigned) [448] | 100 to 1000 | – | – | –
CN1C(=O)CN(c2cc(C3CC3)cn3cc(CNc4cc(NC(=O)C5CC5(F)c5cccc(Cl)c5)ncn4)nc23)C1=O (single isomer, unassigned) [333] | < 1 | 400 to 1500 | – | –
CN1C(=O)CN(c2cc(C3CC3)cn3cc(CNc4cc(NC(=O)C5C(c6cccc(Cl)c6)C5(F)F)ncn4)nc23)C1=O (single isomer, unassigned) [545] | < 1 | 1500 to 10000 | – | –
CN1C(=O)CN(c2cc(C3CC3)cn3cc(CNc4cc(NC(=O)C5CC5(F)c5cccc(Cl)c5)ncn4)nc23)C1=O (racemic) [331] | 1 to 10 | – | – | –
O=C(Nc1cc(NCc2cn3cc(C4CC4)cc(N4CCOCC4=O)c3n2)ncn1)C1CC1c1cccc(Cl)c1 (single isomer, unassigned) [76] | 100 to 1000 | – | – | –
Cc1ccnc(C2CC2C(=O)Nc2cc(NCc3cn4cc(C5CC5)cc(N5CC6CC6C5=O)c4n3)ncn2)n1 (single isomer, unassigned) [321] | 100 to 1000 | – | – | –
O=C(Nc1cc(NCc2cn3cc(C4CC4)cc(N4C(=O)C5CCC4C5)c3n2)ccn1)[C@H]1C[C@@H]1c1cccc(Cl)c1 (single isomer, unassigned) [94] | < 1 | – | – | –
N#Cc1ccc(Cl)cc1C1CC1C(=O)Nc1cc(NCc2cn3cc(C4CC4)cc(N4CCCC4=O)c3n2)ccn1 (single isomer, unassigned) | 10 to 100 | – | < 400 | < 1
CC1CCC(=O)N1c1cc(C2CC2)cn2cc(CNc3ccnc(NC(=O)[C@H]4C[C@@H]4c4cccc(Cl)c4)c3)nc12 (single isomer, unassigned) | < 1 | 400 to 1500 | – | –
